From PMC12120022, “Discovery and chemical optimisation of a potent, Bi-cyclic antimicrobial inhibitor of Escherichia coli PBP3” (Communications Biology, 2025)

Sequences of proteins named here, by UniProt entry; tags and fusion partners are left off. Residues count along the entry.
UniProt P0AD68, 60-588: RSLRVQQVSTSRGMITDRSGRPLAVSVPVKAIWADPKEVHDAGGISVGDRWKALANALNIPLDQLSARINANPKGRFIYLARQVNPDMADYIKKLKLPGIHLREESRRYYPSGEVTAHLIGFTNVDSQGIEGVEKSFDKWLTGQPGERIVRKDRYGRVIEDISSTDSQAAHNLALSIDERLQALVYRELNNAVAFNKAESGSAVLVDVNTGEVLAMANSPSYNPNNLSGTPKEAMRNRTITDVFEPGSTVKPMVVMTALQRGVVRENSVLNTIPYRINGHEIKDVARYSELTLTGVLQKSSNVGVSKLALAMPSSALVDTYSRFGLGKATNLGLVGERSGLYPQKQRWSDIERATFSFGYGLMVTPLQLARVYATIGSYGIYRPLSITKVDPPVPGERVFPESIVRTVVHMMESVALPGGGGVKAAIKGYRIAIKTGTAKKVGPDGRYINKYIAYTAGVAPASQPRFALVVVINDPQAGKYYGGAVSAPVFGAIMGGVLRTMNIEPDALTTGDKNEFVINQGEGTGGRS

Legend:
[1] = Mouse blood stability; format: in vitro ADME, CD-1 mice; details: heparin as anticoagulant, 5 μM, 37 °C, SAR conjugates
Experimental: (§1) Stability assays were performed using freshly collected matrices from CD-1 mice, with anticoagulant as stated per dataset. Compound stocks in DMSO were tested at 5 μM final concentration (0.5% (v/v) DMSO). Compounds were incubated in blood or plasma at 37 °C for 24 h, with sampling at 0, 1, 2, 4, 6 and 24 h. Samples were prepared via protein precipitation using organic solvent containing internal standard, and analyzed by LC-MS/MS. Compound remaining was quantified based on the ratio of analyte to internal standard, and the half-life (t1/2) was calculated from a log linear plot of % remaining versus time.

[2] = target: T1, EcPBP3 (Escherichia coli, UniProt P0AD68); experiment: Fluorescence polarisation competition assay with fluorescent Bicycle tracer (tracer 1 / BCY12820); format: binding; details: protein 9.4 nM sets sensitivity limit, top concentration 5 µM, read-out: Ki (nM) by fluorescence polarisation with tracer 1 (BCY12820 as tracer), Geometric mean (Lower 95% CI; Upper 95% CI, n=number of values)
T1 construct: For assays, selections and SPR a construct with residues 60–588 which has the N-terminal domain, but not the transmembrane helix, was used; made in house
Experimental: Competition fluorescence polarisation assays were run by observing the fluorescence polarisation of a fluorescent “tracer” Bicycle molecule which competes against an unlabelled peptide for binding to the EcPBP3 target. 10 µL of protein (9.4 nM) was mixed with either 5 µL of peptide or 5 µL of buffer and then the assay was initiated by the addition of 10 µL of tracer (1 nM) (final volume 25 µL), in a black 384 low bind, low volume plate (Corning). The buffer was 10 mM HEPES (Sigma), 2% (v/v) glycerol (Sigma), 300 mM NaCl (Sigma), adjusted to pH 8. The plate was incubated for 1 h at 25 °C and then read in a PHERAstar FS (BMG) using with an “FP 485 520 520” optic module (excitation 485 nm, emission 520 nm). The gain was determined immediately prior to the read on a tracer-only well.
Dotmatics (Dotmatics) workflows performing the above calculations were used to process the data. Values quoted are the geometric means of at least 2 repeats.

[3] = target: T1, EcPBP3; experiment: SPR binding assay on immobilised EcPBP3; details: 37 °C, kinetic fitting; NB = no binding at 2500 nM (Tables S-4, S-5) or 5000 nM (Table 1); read-out: Kd (nM) by SPR (geomean)
Experimental: Surface plasmon resonance (SPR) assays were performed using EcPBP3 immobilized on CM5 sensor chips (GE Healthcare) via amine-coupling chemistry in assay buffer (10 mM HEPES pH 8.0, 200 mM NaCl, 0.05% (v/v) surfactant P20). The chip surface was activated by injection (10 μL min^–1) of 0.4 M EDC and 0.1 M NHS (in a 1:1 ratio) with a 7 min contact time. Protein was diluted to 25 μg mL^–1 in 10 mM MOPS (pH 7.0) and injected over the activated sensor chip surface to reach immobilization of 1500-2500 response units. Excess hydroxysuccinimidyl groups on the chip surface were deactivated by injection (10 μL min^–1) of 1 M ethanolamine hydrochloride pH 8.0 with a 7 min contact time. Reference flow cells were prepared as described, but without ligand (EcPBP3 protein).
Binding analysis runs were performed at 37 °C in running buffer (10 mM HEPES pH 8.0, 200 mM NaCl, 0.05% (w/v) Tween-20, 2% (v/v) DMSO). […]
Raw sensorgrams data were solvent-corrected, reference-subtracted and blank-buffer-subtracted (double-referencing) before kinetic and affinity analysis to account for non-specific binding and injection artifacts. Equilibrium dissociation constant (Kd) values was determined using the Biacore™ Insight Evaluation Software (version 4.0.8 or version 5.0.17) using kinetic fitting. […]

[4] = tested on: human blood; experiment: Haemolysis assay; format: cell-based; details: human whole blood, 37 °C, 10 min
Experimental: Haemolysis assays were performed using human blood from healthy volunteers, with K2-EDTA as the anticoagulant. Blood was preincubated at 37 °C for 15 min with orbital shaking at 60 rpm. In a 96-deep well plate, 4 μL compound at 100x final concentration was prepared, to which 200 μL whole blood and either 200 μL phosphate-buffered saline (PBS) (test and negative control wells) or 200 μL 2% (w/v) saponin in PBS (positive control wells) was added. Plates were incubated at 37 °C for 10 min with orbital shaking at 60 rpm, and then centrifuged at 500 x g for 5 min at room temperature. 50 μL of supernatant was diluted 1:1 with PBS in a 96 well flat-bottom plate, and absorbance at A540nm was read with a SpectraMax plate reader. Absorbance values were normalised to the mean value for wells with 1% (w/v) saponin, to give a percentage haemolysis readout. Data are representative of 3 technical replicates.

[5] = Mouse plasma stability; format: in vitro ADME, CD-1 mice; details: 5 μM, 37 °C
Experimental: as §1

Substance	Blood stability (t1/2) [1]	Ki [2]	Kd [3]	Haemolysis [4]	Plasma stability (t1/2) [5]
ACSFP[HArg]CP[6ClTrp]VEGCA* [Conjugate 4]	8.8 h	–	–	–	–
[-Ac]CSFP[HArg]CPWVEGCA* [Conjugate 7]	2.8 h	–	–	–	–
[-Ac]ACSFP[HArg]CP[6ClTrp]VEGCA* [Conjugate 5]	19.9 h	–	–	–	–
[-Ac]CSFP[HArg]CP[6ClTrp]VEGCA* [Conjugate 6]	4.4 h	–	–	–	–
ACSFPKCPWVEGCA* [Conjugate 2]	6.9 h	27.7 nM	0.525 nM	>100 µM	5.7 h
